Among the data in ChEMBL document CHEMBL6078633, “Covalent Inhibitors of S100A4 Block the Formation of a Pro-Metastasis Non-Muscle Myosin 2A Complex” (J Med Chem, 2024) are IC50 and Kobs values, retold here.

Chains of the proteins cited; added tags and fusions are not shown. Lines headed by an entry give the natural chain unless they say otherwise; changes in a name come on top.
UniProt P26447: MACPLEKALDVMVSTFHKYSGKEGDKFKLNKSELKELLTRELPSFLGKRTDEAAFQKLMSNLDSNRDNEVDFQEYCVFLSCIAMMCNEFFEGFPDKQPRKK

Test [1] can be described thus: Inhibition of S100A4-NMII interaction (unknown origin) by HTRF analysis. Details: species or system Homo sapiens. A digest of the protocol:
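TR-FRET peptide-displacement assays run in parallel: S100A4 with MPN (NMII-mimicking) peptide, and S100A11 with AnII-mimicking peptide, both with 1 mM calcium. Duplicate dose-response in two independent experiments; top concentration 100 μM or 48.75 μM depending on series. IC50 fitted from percentage inhibition against solvent controls.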
(Time-resolved FRET reads energy transfer from a long-lived donor to a nearby acceptor.)

For test [2], the target named is Protein S100-A4 (Homo sapiens, UniProt P26447).

What is called IC50 is the concentration that gives 50% inhibition. In test [1], `O=C(NC1CCCc2ccccc21)[C@H]1C[C@H](c2ccccc2)CN1C(=O)CCl` (some centres not stated) had an IC50 of 380 nM. For the compound `O=C(Nc1cccc(Cl)c1)[C@H]1C[C@H](c2ccccc2)CN1C(=O)CCl`, the Kobs in test [2] was 22 10^-4/s.
